Columns and labels:
[1] = target: Muscarinic acetylcholine receptor M3 (Homo sapiens, UniProt P20309); assay: Displacement of [3H]-N-methyl Scopolamine Chloride from human M3 receptor membranes incubated for 2 hrs by scintillation counting analysis; type: cell membranes, Cell membrane
[2] = target: 3',5'-cyclic-AMP phosphodiesterase 4B (Homo sapiens, UniProt Q07343); assay: Inhibition of human recombinant PDE4B2 assessed as […] in cAMP level incubated for 2 hrs by LANCE Ultra cAMP TR-FRET assay
[3] = Antiinflammatory activity in human PBMCs assessed as inhibition of LPS-induced TNF-alpha release measured after 18 hrs by ELISA; type: functional, tissue-based; settings: pbmc

By UniProt entry, the sequences of proteins in these tests, tags left out. Where a name states a change or a piece, a line headed by the entry shows the natural chain unless it says otherwise.
UniProt P20309, whole entry: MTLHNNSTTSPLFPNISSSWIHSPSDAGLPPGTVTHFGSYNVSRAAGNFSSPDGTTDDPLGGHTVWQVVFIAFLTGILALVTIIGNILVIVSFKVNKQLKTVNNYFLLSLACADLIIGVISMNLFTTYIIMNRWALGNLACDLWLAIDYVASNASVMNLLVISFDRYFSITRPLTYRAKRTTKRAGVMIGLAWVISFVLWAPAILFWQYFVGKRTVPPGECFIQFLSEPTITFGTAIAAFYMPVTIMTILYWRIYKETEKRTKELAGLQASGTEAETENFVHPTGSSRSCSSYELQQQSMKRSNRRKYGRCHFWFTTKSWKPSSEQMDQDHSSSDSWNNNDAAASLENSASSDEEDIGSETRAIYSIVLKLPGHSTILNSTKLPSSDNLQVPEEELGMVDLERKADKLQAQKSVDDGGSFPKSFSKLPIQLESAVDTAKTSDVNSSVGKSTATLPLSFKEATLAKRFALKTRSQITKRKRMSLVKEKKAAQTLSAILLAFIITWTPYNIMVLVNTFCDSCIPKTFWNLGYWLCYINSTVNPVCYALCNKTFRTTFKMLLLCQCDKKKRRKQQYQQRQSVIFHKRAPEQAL
UniProt Q07343: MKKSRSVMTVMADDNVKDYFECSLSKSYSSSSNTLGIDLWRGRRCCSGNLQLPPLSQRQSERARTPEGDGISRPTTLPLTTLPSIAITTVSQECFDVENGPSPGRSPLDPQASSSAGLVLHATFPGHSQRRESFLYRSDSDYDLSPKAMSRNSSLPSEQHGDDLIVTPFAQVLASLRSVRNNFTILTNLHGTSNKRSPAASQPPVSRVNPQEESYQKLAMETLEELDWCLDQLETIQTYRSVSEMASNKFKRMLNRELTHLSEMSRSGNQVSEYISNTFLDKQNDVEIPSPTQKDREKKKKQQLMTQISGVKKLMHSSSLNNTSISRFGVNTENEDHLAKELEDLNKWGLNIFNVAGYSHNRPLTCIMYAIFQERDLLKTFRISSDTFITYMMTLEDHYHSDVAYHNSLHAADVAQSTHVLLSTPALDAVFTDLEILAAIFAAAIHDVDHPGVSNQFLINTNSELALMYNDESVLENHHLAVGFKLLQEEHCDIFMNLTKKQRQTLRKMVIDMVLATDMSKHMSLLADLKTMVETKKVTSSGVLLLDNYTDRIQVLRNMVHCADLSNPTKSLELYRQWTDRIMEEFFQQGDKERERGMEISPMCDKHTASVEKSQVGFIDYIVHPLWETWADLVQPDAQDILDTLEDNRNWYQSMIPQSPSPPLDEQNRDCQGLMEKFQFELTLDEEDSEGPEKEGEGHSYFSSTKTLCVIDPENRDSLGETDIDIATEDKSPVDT

COc1ccc([C@H](Cc2c(Cl)c[n+]([O-])cc2Cl)OC(=O)c2ccc(CNC(C(=O)OCC3CCN(C)CC3)c3ccccc3)s2)cc1OC (stereo in doubt; 91h)
Ki [1]: 10 nM

COc1ccc([C@H](Cc2c(Cl)c[n+]([O-])cc2Cl)OC(=O)c2ccc(CNC(C(=O)OC[C@H]3CCN3C)c3ccccc3)s2)cc1OC (stereo in doubt; 91i)
Ki [1]: 2.51 nM | IC50 [2]: 2.51 nM

COc1ccc([C@H](Cc2c(Cl)c[n+]([O-])cc2Cl)OC(=O)c2ccc(CNC(C(=O)OCC3CCN(C)CC3)c3ccccc3)s2)cc1OC (stereo in doubt; 92h)
Ki [1]: 0.316 nM

COc1ccc([C@H](Cc2c(Cl)c[n+]([O-])cc2Cl)OC(=O)c2ccc(CNC(C(=O)OC[C@H]3CCN3C)c3ccccc3)s2)cc1OC (stereo in doubt; 92i)
Ki [1]: 0.2 nM | IC50 [2]: 1.26 nM | pIC50 [3]: 8.6

From ChEMBL document CHEMBL5034004, “Discovery of M3 Antagonist-PDE4 Inhibitor Dual Pharmacology Molecules for the Treatment of Chronic Obstructive Pulmonary Disease” (J Med Chem, 2021)
